Data on one compound can be found in patent EP3315495A1, “N,N' -[…], N,N' -DIAR[…] N,N' -DIARY[…] FOR USE IN TREATMENT AND PREVENTION OF INFLAMMATORY DISEASE” (Universität Innsbruck, priority 2016, dated 2018).

The test system of this assay is 5-LOX product formation in PMNL. The assay is described as follows: 5-LOX product formation in PMNL stimulated with A23187 (cell-based). Set-up: species or system human. The conditions noted are these: 60 µM AA, also at higher inhibitor concentrations. As to the method:
Briefly, first a cell-based assay allows to determine the inhibition of the 5-LOX product biosynthesis. The cell suspension contained human neutrophils (PMNL) or monocytes, wherein the cells were isolated from buffy coats obtained from healthy donors pooled by gender. An aliquot cell suspension was incubated with the candidate compound for 15 min at 37 °C. The cells are treated with calcium ionophore A23187 to stimulate 5-LOX product formation for further 10 min (37 °C), optionally in presence of various concentrations of AA. The reaction was stopped with 1 mL methanol on ice.
In both assays, product quantification was conducted with RP-HPLC and UV detection after solid phase extraction and addition of 200 ng prostaglandin B1 as internal standard.

With `Cc1cc(OCc2nc3ccccc3s2)ccc1NC(=O)Nc1ccc(Cl)c(Cl)c1` [Compound I-12, N-[4-(2-benzothiazolylmethoxy)-2-methylphenyl]-N'-(3,4-dichlorophenyl)-urea], the “inhibition of product formation” value is “could not achieve an inhibition of product formation below 50%”.
